Laboratory results published in patent US20230183592A1, “SPECIFIC ORGANOPHOSPHORUS COMPOUNDS AS NON-NEUROTOXIC ANTI-WEAR AGENTS” (priority 2020, published 2023).
Like-named read-outs stand apart in the source and are kept apart here.

By UniProt entry, the sequences of proteins in these tests, tags left out. Residues count along the entry.
UniProt P81908, whole entry: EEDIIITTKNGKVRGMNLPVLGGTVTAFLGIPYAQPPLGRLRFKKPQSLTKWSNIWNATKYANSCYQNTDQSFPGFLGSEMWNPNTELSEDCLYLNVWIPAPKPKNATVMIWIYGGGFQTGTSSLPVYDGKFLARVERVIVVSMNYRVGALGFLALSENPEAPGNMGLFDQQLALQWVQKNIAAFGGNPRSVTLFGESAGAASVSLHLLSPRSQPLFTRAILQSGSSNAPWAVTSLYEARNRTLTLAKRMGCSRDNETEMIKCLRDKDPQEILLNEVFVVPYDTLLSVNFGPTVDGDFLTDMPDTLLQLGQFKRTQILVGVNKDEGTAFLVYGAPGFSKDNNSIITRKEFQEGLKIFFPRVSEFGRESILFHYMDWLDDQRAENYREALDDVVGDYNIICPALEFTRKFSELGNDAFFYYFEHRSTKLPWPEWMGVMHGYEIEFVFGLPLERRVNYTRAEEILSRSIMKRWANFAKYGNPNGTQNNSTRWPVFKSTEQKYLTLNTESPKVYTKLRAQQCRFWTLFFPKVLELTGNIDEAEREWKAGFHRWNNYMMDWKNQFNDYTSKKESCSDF
UniProt P22303, 32-617 isoform P22303-2 limits assumed: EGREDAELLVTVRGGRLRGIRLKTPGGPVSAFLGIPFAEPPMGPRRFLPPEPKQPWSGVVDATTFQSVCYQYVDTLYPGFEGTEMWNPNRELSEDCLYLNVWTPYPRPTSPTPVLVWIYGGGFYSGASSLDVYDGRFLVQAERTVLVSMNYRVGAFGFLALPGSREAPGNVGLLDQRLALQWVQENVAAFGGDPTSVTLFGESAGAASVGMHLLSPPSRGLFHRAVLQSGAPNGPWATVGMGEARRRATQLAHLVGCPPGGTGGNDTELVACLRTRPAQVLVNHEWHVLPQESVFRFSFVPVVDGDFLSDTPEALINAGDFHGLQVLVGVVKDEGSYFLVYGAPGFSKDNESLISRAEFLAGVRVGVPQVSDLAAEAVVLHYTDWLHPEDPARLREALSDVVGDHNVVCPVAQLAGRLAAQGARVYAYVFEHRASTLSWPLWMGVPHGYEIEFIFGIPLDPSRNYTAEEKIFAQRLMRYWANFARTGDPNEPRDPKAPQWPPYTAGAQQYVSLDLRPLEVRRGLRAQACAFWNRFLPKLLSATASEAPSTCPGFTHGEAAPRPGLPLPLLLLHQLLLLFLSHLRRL

Assays:
[1] = target: T1, BuChE from equine serum (eqBuChE) (Equus caballus, UniProt P81908); type: biochemical
T1 construct: The BuChE freeze-dried from equine serum (eqBuChE, Sigma Aldrich); purchased Sigma Aldrich; host or cells: equine serum (natural source)
Description: (§1) In the extent that the toxic activity of TCP especially involves its action on cholinesterases, the effect of the compounds used according to the invention, as well as comparative compounds, on two cholinesterases was studied. The required concentration values of each compound to inhibit 50% of the activity of two cholinesterases were measured.
(§2) The acetylthiocholine and butyrylthiocholine iodide, and 5,5-dithiobis (2-nitrobenzoic) acid (DTNB) were purchased from Sigma Aldrich (Steinheim, Germany).
(§3) In the procedure, 100 μL of 0.3 mM DTNB dissolved in phosphate buffer, pH 7.4, were added in 96-well plates, followed by 50 μL solution of the test compound and 50 μL enzyme (final 0.05 U). After 5 minutes of pre-incubation at 25° C., the reaction was initiated by injecting 50 μL of 0.1 mM acetyl or butyryl thiocholine iodide solution. The acetyl or butyryl thiocholine hydrolysis was followed by the formation of yellow 5-thio 2-nitrobenzoate anion as the product of the reaction of DTNB with the thiocholine released by the enzymatic hydrolysis of the acetyl or butyryl thiocholine, at a wavelength of 412 nm, using a microplate reader (Synergy 2, Biotek, Colmar, France). The compounds to be tested were dissolved to 5×10^−3M in analytical grade DMSO. Donepezil or tacrine were used as reference standards. The absorption increase rate at 412 nm was determined 4 minutes after the addition of the acetyl or butyryl thiocholine iodide solution. The tests were carried out with a blank containing all the compounds except the acetyl or butyryl thiocholine in order to take into account non-enzymatic reactions.
(§4) The percentage of inhibition due to the presence of the test compounds was calculated using the following expression: […]
(§5) wherein vi is the rate calculated in the presence of the inhibitor, and v0 is the enzymatic activity.
(§6) All the experiments were carried out in n=3.

[2] = target: T2, human erythrocyte AChE (hAChE) (Homo sapiens, UniProt P22303); type: biochemical
T2 construct: The human erythrocyte AChE (hAChE, aqueous buffer solution); purchased Sigma Aldrich; host or cells: human erythrocytes (natural source)
Description: as §1, §2, §3, §4, §5, §6

[3] = European Chemicals Agency website; cited from earlier work
[4] = sum of five 0/1 risk factors, 0 (lack of risk) to 5 (very high multiple risk)
Text: The last column corresponds to a risk level score for the safety of these molecules for use in oils such as turbine oils and their alleged cabin toxicity. […] A 0 value indicates a lack of risk, and a 5 value indicates a very high multiple risk. For each risk, a factor 0 or 1 is assigned based on whether the value is above or below a threshold.

[5] = equine serum BuChE, Ellman method, 5 min pre-incubation at 25° C., n=3
[6] = human erythrocyte AChE, Ellman method, 5 min pre-incubation at 25° C., n=3

| Substance | IC50 eqBuChE [1] | IC50 hAChE [2] | IC50 eqBuChE [1, 5] | IC50 hAChE [2, 6] | ECHA's official data [3] | Risk level [4] |
| --- | --- | --- | --- | --- | --- | --- |
| Tri(4-isopropylbenzoate)phosphate [Compound G] | 145.5 µg/mL | 15.8 µg/mL | – | – | – | – |
| isononyl diphenylphosphate [Compound Q] | – | – | 1.6 µg/mL | 18.4 µg/mL | – | – |
| n-dodecyl diphenylphosphate [Compound 2] | – | – | 78 µg/mL | 28 µg/mL | No CMR, no acute toxicity | 0 |
| isododecyl diphenylphosphate [Compound 4] | – | – | 34 µg/mL | 16 µg/mL | – | – |
| isohexadecyl diphenylphosphate [Compound 5] | – | – | 27 µg/mL | – | – | – |
| 2-octyl 1-dodecyl diphenylphosphate [Compound 3] | – | – | 82 µg/mL | 22 µg/mL | – | 0 |
